Measured values reported in US20230355541A1, “ENZYMATICALLY CLEAVABLE SELF-ASSEMBLED NANOPARTICLES FOR MORPHOGEN DELIVERY” (UNIVERSITY OF SOUTH CAROLINA, priority 2019, published 2023).

Chains of the proteins cited; added tags and fusions are not shown. Residues count along the entry.
UniProt P00747, 97-810, species assumed: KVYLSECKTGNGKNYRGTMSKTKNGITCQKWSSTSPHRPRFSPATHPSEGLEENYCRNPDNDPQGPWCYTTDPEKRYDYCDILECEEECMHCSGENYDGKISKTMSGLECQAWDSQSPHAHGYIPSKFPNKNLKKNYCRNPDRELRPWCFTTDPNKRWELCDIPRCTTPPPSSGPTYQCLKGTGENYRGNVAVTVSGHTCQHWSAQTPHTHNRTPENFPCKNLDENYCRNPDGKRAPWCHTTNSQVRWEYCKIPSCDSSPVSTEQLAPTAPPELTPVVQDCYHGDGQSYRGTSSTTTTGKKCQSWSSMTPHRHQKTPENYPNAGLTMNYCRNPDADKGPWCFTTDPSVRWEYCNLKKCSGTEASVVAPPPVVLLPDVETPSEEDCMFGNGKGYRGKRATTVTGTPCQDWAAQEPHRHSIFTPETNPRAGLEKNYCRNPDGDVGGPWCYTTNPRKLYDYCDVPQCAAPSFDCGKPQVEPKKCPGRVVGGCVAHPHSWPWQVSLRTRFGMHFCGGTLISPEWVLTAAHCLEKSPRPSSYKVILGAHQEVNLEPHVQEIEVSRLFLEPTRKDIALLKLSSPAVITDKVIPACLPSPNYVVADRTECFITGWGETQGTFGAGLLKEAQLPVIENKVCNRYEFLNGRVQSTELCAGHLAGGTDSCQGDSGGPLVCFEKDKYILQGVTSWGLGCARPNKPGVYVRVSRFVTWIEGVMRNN

Experiments:
plasmin = plasmin (Homo sapiens, UniProt P00747); assay: BMP2 release from NPs encapsulated with plasmin in LPELA hydrogel (ELISA); format: physicochemical; settings: for cumulative release of BMP2 from LPELA hydrogel: after 21 days of incubation, NPs co-encapsulated with plasmin; for cumulative BMP2 activity, % of the total BMP2 loaded in the hydrogel: after 21 days, non-cleavable NPs and plasmin encapsulated in hydrogel, ELISA
Protocol: For release studies, plasmin (0.2 U/mL) was added to the suspension of 10 mg BMP2-PxSPCP NPs in 1 mL PBS and incubated at 37° C. with shaking at 50 rpm. At each time point, the suspension was centrifuged at 10,000 rpm for 5 minutes, the supernatant containing the free BMP2 was collected and replaced with fresh plasmin solution. BMP2 content of the supernatant solution was measured with a BMP2 ELISA kit. BMP2 added directly to the plasmin solution and BMP2-PxSP NPs were used as control groups.
Release Characteristics and Bioactivity of BMP2-PxSPCP NPs: The grafting efficiency of BMP2 to PxSPCP NPs decreased from 73.1±2.7% to 69.5±3.2% and 24.5±1.4% as the PEG MW was increased from 2 kDa to 5 kDa and 7.5 kDa, respectively. This decrease was attributed to higher entrapment of the reactive succinimide groups of PxSPCP within the NPs' core with increasing PEG MW, which reduced their availability for BMP2 grafting. BMP2-PxSPCP NPs were encapsulated in LPELA hydrogel, the hydrogel was incubated in PBS, and the release of BMP2 to the incubating medium was measured with time by ELISA. FIGS. 7A-7C show the release kinetic of BMP2 from the encapsulated NPs in LPELA hydrogel with PxSPCP PEG MW of 2 kDa (FIG. 7A), 5 kDa (FIG. 7B), and 7.5 kDa (FIG. 7C), respectively. […] The additional lines in (FIGS. 7A-7C) provide the release of free BMP2 with (circle, 11) and without (circle, 12) plasmin from LPELA hydrogel; the + and − signs correspond to with and without plasmin, respectively. Error bars correspond to means ±1 SD for n=3.
Experimental groups included BMP2-PxSPCP NPs plus plasmin encapsulated in the hydrogel (9, 13, 15 in FIGS. 7A-7C, respectively), BMP2-PxSP NPs plus plasmin in the hydrogel (dash 10, dash 14 or dash 16 in FIGS. 7A-7C, respectively), free BMP2 in the hydrogel (11), and free BMP2 plus plasmin in the hydrogel (12). […] The incomplete (<100%) release of free BMP2 from the hydrogel was attributed to protein adsorption to the matrix or protein denaturation during hydrogel encapsulation and gelation. ELISA measurements detected relatively small but significant BMP2 activity with incubation time for BMP2-PxSP NPs and plasmin encapsulated in the hydrogel (see 10, 14, or 16 in FIGS. 7A-7C), but the activity decreased with increasing PEG MW of the NPs. The cumulative BMP2 activity after 21 days associated with the encapsulated BMP2-PxSP NPs with PEG MW of 2 kDa, 5 kDa, and 7.5 kDa was 30%, 20% and 19% of the total BMP2 loaded in the hydrogel, respectively. This BMP2 activity was attributed to the release of BMP2-PxSP NPs from the hydrogel which was subsequently detected by ELISA. The BMP2 grafted to PxSPCP NPs and co-encapsulated in the hydrogel with plasmin was gradually released to the medium with incubation time at a rate faster than BMP2-PxSP NPs but slower than the free BMP2. For example, the cumulative release of BMP2 from the encapsulated BMP2-P5SPCP NPs was 60% after 21 days which was higher than the encapsulated P5SP NPs at 20% and slower than the free BMP2 at 80%.

[1] = Grafting efficiency of BMP2 to PxSPCP NPs (ELISA of free BMP2); format: physicochemical; settings: by PEG MW
Protocol: Grafting BMP2 to PxSPCP NPs and Protein Release: BSA was grafted to PxSPCP NPs for particle size analysis, grafting efficiency and protein stability studies whereas BMP2 was grafted for protein release and cell culture experiments. For grafting, 10 mg PxSPCP NPs were dispersed in PBS by sonication for 5 minutes. Next, 0.5 mL of BMP2 (400 ng/mL) or BSA (20 mg/mL) were added to the NP suspension and the grafting reaction between the free amine groups of BMP2 or BSA and the succinimide groups of the NPs was allowed to proceed overnight under ambient condition to produce BMP2-PxSPCP NPs (FIG. 1E). After the reaction, the suspension was centrifuged at 15000 rpm for 10 minutes and the amount of free (not grafted) BMP2 or BSA in the supernatant was quantified by ELISA or BCA protein assay, respectively.

hMSCs = assay: Osteogenic activity of BMP2 released from NPs co-encapsulated with hMSCs in LPELA hydrogel; format: cell-based, human; settings: for peak RUNX2 expression of hMSCs / peak ALP expression of hMSCs: mRNA fold expression; for peak RUNX2 expression of hMSCs: peak on day 7, osteogenic medium without DEX; for peak ALP expression of hMSCs: peak on day 14
Protocol: The bioactivity of BMP2 released from the NPs was determined by measuring the expression of osteogenic markers for hMSCs encapsulated in LPELA hydrogel and incubated in the osteogenic medium (without BMP2 or DEX) supplemented with BMP2 released from the NPs. The measured markers of osteogenic differentiation included RUNX2 (early marker) and calcium (late marker). Control groups included hMSCs encapsulated in LPELA hydrogel and incubated in osteogenic medium with or without BMP2 directly added to the medium.
(§1) Biochemical, mRNA and Protein Analysis and Immunofluorescent Staining: At each time point after washing the hydrogel constructs to remove serum proteins and sonicating to lyse the encapsulated cells, 43 samples were divided into four groups for biochemical, mRNA and protein analysis, and immunofluorescent staining. For biochemical analysis, the double-stranded DNA content, ALP activity, and calcium content of the homogenized samples were measured. For mRNA expression, the RNA of the homogenized samples was extracted and used for measurement of mRNA expression of osteogenic markers (RUNX2, Col I, and ALP) and vasculogenic markers (vWF, VEGFR, VE-cadherin, and CD31). To compare expression between the groups, mRNA-fold difference for expression of the gene of interest was normalized to that of GAPDH, followed by normalization against day one expression. The expression of CD31 vasculogenic marker of the homogenized samples at the protein level was quantified by western blot. Alizarin red and immunofluorescent staining were used to image the intensity of mineralization and CD31 expression. The stained samples were imaged with a Nikon Eclipse Ti-ε inverted fluorescent microscope.
Osteogenic Activity of BMP2 Released from PxSPCP NPs: BMP2-PxSPCP NPs (PEG MW of 2 kDa, 5 kDa, and 7.5 kDa) and hMSCs were co-encapsulated in LPELA hydrogel, incubated in osteogenic medium without DEX, and the extent of osteogenesis was measured with incubation time. The DNA contents of hMSCs with incubation time for BMP2-PxSPCP NPs with PEG MW of 2 kDa, 5 kDa, and 7.5 kDa are shown in FIGS. 8A-8C, respectively; mRNA expressions of RUNX2 are shown in FIGS. 8D-8F; and ALP mRNA expressions are shown in FIGS. 8G-8I. Experimental groups included BMP2-P2SPCP NPs (17), BMP2-P2SP NPs (18), BMP2-PSSPCP NPs (22), BMP2-PSSPCP NPs (23), BMP2-P7.5SPCP NPs (24), and BMP2-P7.5SP NPs (25) co-encapsulated with hMSCs in LPELA hydrogel. Control groups were hMSCs encapsulated in LPELA hydrogel and incubated in osteogenic medium supplemented with (19) or without (21) BMP2, and hMSCs co-encapsulated with BMP2 in the hydrogel and incubated in osteogenic medium without DEX (20). The DNA content of all groups decreased with incubation time. DNA content of those groups incubated in osteogenic medium without BMP2 or with BMP2-PxSP NPs decreased at a slower rate compared to those with BMP2 or BMP2-PxSPCP NPs, consistent with previous reports.

hMSCs and ECFCs = assay: Osteogenic differentiation in patterned LPELA/GelMA hydrogel constructs; format: cell-based, human
Protocol: Encapsulation of hMSCs and ECFCs in Patterned Constructs: Patterned hydrogel constructs with GelMA micro-channels in LPELA matrix were generated for co-culture experiments (FIG. 2). […] The LPELA hydrogel precursor solution loaded with hMSCs and BMP2-PxSPCP NPs was injected inside a Teflon® cylinder fitted with needles. After LPELA gelation, needles were removed and the GelMA precursor solution loaded with ECFCs+hMSCs and VEGF-NGs was injected in the microchannels and crosslinked. The constructs were cultured in appropriate medium with time and analyzed with respect to the expression of markers for osteogenesis and vasculogenesis.
Needles with a diameter of 400 μm and inter-needle separation of 500 μm were inserted through the endcaps of a cylindrical Teflon® mold with diameter and height of 5 and 3 mm, respectively (FIG. 2). Next, the sterile LPELA precursor suspension composed of 200 mg LPELA, 4 mg Ac-GRGD (SEQ ID NO: 8) cell-adhesive peptide, 1.5 mg photo-initiator, 20 mg plasmin-cleavable PxSPCP NPs, and 2×106 hMSCs in 1 mL PBS was injected in the cylindrical mold and crosslinked by UV irradiation. Then, the needles were removed from the LPELA matrix, and the sterile GelMA precursor suspension composed of 50 mg GelMA, 0.375 mg photo-initiator, 2 mg VEGF-NGs, 2×106 of 50:50 hMSCs+ECFCs was injected in the channels and crosslinked by UV irradiation. After gelation, the patterned hydrogel constructs were washed with warm PBS, cultured in basal medium for one day, followed by cultivation in vasculogenic medium (without VEGF) for days 2-7, 50:50 mixture of vasculogenic and osteogenic medium (without VEGF, BMP2 or DEX) for days 8-10, and finally in osteogenic medium (without DEX or BMP2) for days 11-21.
as §1, with “Alizarin red and immunofluorescent staining were used to image the intensity of mineralization and CD31 expression. The stained samples were imaged with a Nikon Eclipse Ti-ε inverted fluorescent microscope.” left out

In the case of “BMP2-P5SP NPs: BMP2 grafted to non-cleavable PEG (5 kDa)-SP NPs without KFKT, control”, the “cumulative release of BMP2 from LPELA hydrogel” value (shortened to “cumulative release of BMP2”) (plasmin) is reported as 20% and the “cumulative BMP2 activity, % of the total BMP2 loaded in the hydrogel” value (“cumulative BMP2 activity, %” below) (plasmin) is reported as 20%.
In the case of “BMP2-P7.5SP NPs: BMP2 grafted to non-cleavable PEG (7.5 kDa)-SP NPs without KFKT, control”, the “cumulative BMP2 activity, %” value (plasmin) is reported as 19%.
For “free BMP2: rhBMP-2 (hereafter referred to as BMP2), received from MyBioSource”, the “cumulative release of BMP2” value (plasmin) was “Approximately 80%” and the “effect of addition of plasmin to the hydrogel on BMP2 release” value (plasmin; free BMP2 in LPELA hydrogel) was “did not affect”.
With “BMP2-P7.5SPCP NPs: BMP2 grafted to plasmin-cleavable P7.5SPCP NPs” the “grafting efficiency of BMP2 to PxSPCP NPs” value (“grafting efficiency of BMP2” for short) [1] was 24.5±1.4%, the “osteogenic activity (peak RUNX2 expression), comparison in words” value (hMSCs; hMSCs in LPELA hydrogel) was “lower” and the “peak RUNX2 expression of hMSCs” value (hMSCs) was 4.2. For the same substance, the “peak ALP expression of hMSCs” value (hMSCs) was 48.
For “BMP2-P2SP NPs: BMP2 grafted to non-cleavable PEG (2 kDa)-SP NPs without KFKT, control”, the “cumulative BMP2 activity, %” value (plasmin) was 30%.
For “BMP2-P2SPCP NPs: BMP2 grafted to plasmin-cleavable P2SPCP NPs”, the “grafting efficiency of BMP2” value [1] was 73.1±2.7%, the “peak RUNX2 expression of hMSCs” value (hMSCs) was 5.7 and the “peak ALP expression of hMSCs” value (hMSCs) was 60. For the same substance, the “Col I-fold expression” value (hMSCs and ECFCs; FIG. 9D) was 15, the calcium content (hMSCs and ECFCs; FIG. 9E) was 390 mg/mg DNA and the ALP activity (hMSCs and ECFCs; FIG. 9F) was 2550 IU/mg DNA. For the same substance, the “Alizarin red staining (mineralization)” value (hMSCs and ECFCs; after 21 days of incubation) was “robust mineralization and nodule formation”.
In the case of “BMP2-P5SPCP NPs: BMP2 grafted to plasmin-cleavable P5SPCP NPs”, the “grafting efficiency of BMP2” value [1] is reported as 69.5±3.2%, the “cumulative release of BMP2” value (plasmin) is reported as 60% and the “peak RUNX2 expression of hMSCs” value (hMSCs) is reported as 5.7. For the same substance, the “peak ALP expression of hMSCs” value (hMSCs) was 52.
